US4021421A, “Benzodiazepine derivatives” (Richter Gedeon Vegyeszeti Gyar Rt., priority 1974, dated 1977)

What was measured:
hexobarbital = experiment: biological half life-time of hexobarbital (UV spectrophotometry of plasma); details: rats
hexobarbital oxidase = experiment: in vivo hexobarbital oxidase activity: hexobarbital sleeping time in rats (enzyme induction); set-up: species or system male Wistar rats
Method: The enzyme-inducing effects of the new compounds were examined under in vivo conditions by determining the hexobarbital oxidase activity. The active agents of the formula (I) were administered to male Wistar rats weighing 50 to 60 g. in oral dosages of 40 mg./kg. The effect appears 24 hours after the administration of the enzyme-inducing substance. At that time the inactivation rate of hexobarbital was determined by administering intravenously 40 mg./kg. of hexobarbital sodium into the animals and measuring the time elapsed between the administration and the reappearance of the righting reflex. The period of sleep observed for the animals treated with the new compounds was compared to that observed in the control group (the animals belonging to the control group were treated with carrier substance only).
24 Hours after the administration of the enzyme-inducing compounds the in vivo inactivation of hexobarbital accelerates, which is evidenced by the shortening of the period of sleep. The results were expressed as percentage differences with respect to the controls. On the basis of the preliminary experiments a difference greater than 25% was regarded to be biologically significant.

`CN1C(=O)CN(N=Cc2ccccc2)C(c2ccccc2)c2cc(Cl)ccc21` (centres unmarked) [Example 5, 1-Methyl-4-benzalamino-5-phenyl-7-chloro-1,3,4,5-tetrahydro-2H-1,4-benzodiazepine-2-one] was tested, and the “effect on half life-time of hexobarbital (in words)” value (hexobarbital) was “effectively decreases the half life-time of hexobarbital in rats” and the “activity rank among the new compounds (in words)” value (hexobarbital oxidase) was “the most active representative of the new compounds”.
